Measured values: PubChem BioAssay (Tox21)
Only a part is listed here, and it is no random draw. Results filed as inconclusive are left out. Some structures have more than one record in an assay (separate samples or runs), and their calls can disagree. Active and inactive are the calls of the source. Calls follow the shape of the full dose curve.

Amino acid sequences for entries named in this document (tags omitted).
UniProt P28223, whole entry, looked up: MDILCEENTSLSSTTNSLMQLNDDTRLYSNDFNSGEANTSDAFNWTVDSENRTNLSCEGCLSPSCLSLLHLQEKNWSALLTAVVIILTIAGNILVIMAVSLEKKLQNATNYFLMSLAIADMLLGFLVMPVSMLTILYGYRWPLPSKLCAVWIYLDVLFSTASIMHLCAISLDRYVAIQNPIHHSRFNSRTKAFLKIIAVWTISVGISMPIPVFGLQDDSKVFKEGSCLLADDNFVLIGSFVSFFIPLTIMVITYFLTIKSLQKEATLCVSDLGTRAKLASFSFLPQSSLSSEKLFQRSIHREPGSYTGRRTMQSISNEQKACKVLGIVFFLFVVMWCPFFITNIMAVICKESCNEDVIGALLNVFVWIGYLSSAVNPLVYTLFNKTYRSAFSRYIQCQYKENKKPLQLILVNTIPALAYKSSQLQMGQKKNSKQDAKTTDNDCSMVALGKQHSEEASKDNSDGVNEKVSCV

Key:
[1] = biological target: 5-hydroxytryptamine receptor 2A (Homo sapiens) (UniProt P28223); assay: 5-hydroxytryptamine receptor 2A (HTR2A) small molecule antagonists, cell-based qHTS assay (AID 1963586); details: HTR2A-CHO cells, DOI-induced calcium flux, fluorescence; also: nearly all actives have a fitted effect of over 45% in size
Summary of the method: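 CHO cells stably expressing human HTR2A were plated for 18 h at 37 C, then loaded with calcium dye for 1 h. Compounds were preincubated 5 min at room temperature before DOI (4 nM solution) was added. Kinetic fluorescence was read for 3 min.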

[2] = biological target: 5-hydroxytryptamine receptor 2A (Homo sapiens) (UniProt P28223); assay: 5-hydroxytryptamine receptor 2A (HTR2A) small molecule agonists, cell-based qHTS assay (AID 1963587); details: HTR2A-CHO cells, calcium flux fluorescence, agonist mode; also: nearly all actives have a fitted effect of over 30% in size
Summary of the method: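 Kinetic calcium-flux fluorescence (2 min, 1 sec intervals) after compound addition in agonist mode. HTR2A-CHO cells were cultured 18 h, then dye-loaded 1 h at 37 C.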
Potency is read from the fitted curve at half-maximal effect.

CCc1nc(N)nc(N)c1-c1ccc(Cl)cc1
Potency [1]: active: 38.1 µM | Potency [2]: active: 55.8 µM
